# According to PMC12678819, “Targeting bacterial kinases as a strategy to counteract antibiotic resistance” (2025):
# The chains behind the UniProt entries cited, without tags or fusion partners. Where a name states a change or a piece, a line headed by the entry shows the natural chain unless it says otherwise. Residues count along the entry.
# UniProt P00519, 242-493 limits assumed: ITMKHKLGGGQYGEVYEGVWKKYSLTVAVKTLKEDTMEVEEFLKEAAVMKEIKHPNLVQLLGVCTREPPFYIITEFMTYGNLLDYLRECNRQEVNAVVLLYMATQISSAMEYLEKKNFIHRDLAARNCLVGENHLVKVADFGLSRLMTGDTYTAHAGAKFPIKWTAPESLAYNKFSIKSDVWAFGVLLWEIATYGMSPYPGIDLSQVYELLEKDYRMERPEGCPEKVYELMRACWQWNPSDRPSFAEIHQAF
# UniProt Q9Y243, 148-479 limits assumed: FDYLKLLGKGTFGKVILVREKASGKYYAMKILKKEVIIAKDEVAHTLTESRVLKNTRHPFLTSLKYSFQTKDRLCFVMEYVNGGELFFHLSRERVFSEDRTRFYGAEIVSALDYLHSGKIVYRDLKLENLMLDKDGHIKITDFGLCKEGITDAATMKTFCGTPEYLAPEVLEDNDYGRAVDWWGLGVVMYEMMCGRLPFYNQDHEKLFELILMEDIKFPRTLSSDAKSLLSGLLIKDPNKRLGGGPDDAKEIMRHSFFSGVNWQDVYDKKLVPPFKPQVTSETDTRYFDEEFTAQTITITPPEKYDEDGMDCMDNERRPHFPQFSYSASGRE
# UniProt Q96GD4, 77-327 limits assumed: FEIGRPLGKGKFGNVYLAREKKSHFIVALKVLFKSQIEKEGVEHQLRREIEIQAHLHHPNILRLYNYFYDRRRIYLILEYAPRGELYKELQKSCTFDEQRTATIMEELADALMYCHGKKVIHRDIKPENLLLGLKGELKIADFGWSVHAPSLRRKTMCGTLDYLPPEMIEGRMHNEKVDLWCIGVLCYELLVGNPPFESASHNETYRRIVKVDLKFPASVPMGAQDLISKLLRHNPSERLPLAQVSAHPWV
# UniProt P51813, 417-675 limits assumed: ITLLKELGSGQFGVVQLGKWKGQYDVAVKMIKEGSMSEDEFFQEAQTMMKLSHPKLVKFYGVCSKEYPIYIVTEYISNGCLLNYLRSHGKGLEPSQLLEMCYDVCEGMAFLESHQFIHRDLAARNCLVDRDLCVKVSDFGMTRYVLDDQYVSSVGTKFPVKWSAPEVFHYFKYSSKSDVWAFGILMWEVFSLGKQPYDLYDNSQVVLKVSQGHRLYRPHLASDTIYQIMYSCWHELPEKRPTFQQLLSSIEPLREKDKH
# UniProt O96017, 220-486 limits assumed: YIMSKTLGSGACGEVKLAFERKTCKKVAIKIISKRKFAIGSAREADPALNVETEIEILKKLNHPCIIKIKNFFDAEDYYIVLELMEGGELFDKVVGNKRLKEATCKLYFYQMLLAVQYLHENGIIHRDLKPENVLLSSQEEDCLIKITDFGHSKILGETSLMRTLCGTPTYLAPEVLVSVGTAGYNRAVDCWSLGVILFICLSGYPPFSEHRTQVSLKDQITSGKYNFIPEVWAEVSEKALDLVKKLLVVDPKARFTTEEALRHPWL
# UniProt P49674, 1-294 limits assumed: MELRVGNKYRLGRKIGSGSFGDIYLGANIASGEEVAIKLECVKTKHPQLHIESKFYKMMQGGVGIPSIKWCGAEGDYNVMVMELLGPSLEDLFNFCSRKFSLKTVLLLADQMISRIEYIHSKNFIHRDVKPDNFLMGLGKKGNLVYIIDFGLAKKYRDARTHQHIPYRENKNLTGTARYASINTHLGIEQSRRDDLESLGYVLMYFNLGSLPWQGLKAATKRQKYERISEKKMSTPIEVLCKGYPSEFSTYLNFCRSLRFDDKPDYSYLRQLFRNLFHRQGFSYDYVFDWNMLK
# UniProt O43293, 13-275 limits assumed: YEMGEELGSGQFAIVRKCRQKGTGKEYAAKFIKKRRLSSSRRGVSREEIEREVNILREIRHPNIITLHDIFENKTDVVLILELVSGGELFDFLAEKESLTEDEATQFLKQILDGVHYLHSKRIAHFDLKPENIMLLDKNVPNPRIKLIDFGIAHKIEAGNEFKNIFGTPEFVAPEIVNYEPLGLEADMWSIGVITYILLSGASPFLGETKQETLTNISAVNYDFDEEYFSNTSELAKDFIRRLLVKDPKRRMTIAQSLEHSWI
# UniProt Q09013: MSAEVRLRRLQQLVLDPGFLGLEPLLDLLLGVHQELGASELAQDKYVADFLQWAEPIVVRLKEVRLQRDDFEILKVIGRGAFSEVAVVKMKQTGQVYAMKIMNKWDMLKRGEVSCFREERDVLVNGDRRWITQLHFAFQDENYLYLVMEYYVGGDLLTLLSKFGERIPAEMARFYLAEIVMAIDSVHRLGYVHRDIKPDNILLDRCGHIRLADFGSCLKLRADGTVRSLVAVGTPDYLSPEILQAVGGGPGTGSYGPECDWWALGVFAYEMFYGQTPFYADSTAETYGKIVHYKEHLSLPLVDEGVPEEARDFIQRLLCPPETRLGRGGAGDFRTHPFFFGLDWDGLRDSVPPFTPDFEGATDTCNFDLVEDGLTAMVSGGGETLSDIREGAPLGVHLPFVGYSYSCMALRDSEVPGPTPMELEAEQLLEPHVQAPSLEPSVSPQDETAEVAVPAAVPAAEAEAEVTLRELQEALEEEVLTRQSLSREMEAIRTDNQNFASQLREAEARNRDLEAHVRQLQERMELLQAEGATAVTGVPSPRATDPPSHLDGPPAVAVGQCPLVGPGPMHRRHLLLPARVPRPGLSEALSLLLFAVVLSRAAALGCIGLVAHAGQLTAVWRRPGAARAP
# UniProt P54762, 619-882 limits assumed: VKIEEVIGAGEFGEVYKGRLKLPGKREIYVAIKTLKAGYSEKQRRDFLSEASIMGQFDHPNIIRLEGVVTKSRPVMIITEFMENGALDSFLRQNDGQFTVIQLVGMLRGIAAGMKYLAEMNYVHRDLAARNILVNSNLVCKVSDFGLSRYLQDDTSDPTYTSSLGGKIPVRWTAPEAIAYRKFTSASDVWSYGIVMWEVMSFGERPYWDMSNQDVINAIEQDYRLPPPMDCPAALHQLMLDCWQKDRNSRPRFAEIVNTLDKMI
# UniProt P28482, 25-313 limits assumed: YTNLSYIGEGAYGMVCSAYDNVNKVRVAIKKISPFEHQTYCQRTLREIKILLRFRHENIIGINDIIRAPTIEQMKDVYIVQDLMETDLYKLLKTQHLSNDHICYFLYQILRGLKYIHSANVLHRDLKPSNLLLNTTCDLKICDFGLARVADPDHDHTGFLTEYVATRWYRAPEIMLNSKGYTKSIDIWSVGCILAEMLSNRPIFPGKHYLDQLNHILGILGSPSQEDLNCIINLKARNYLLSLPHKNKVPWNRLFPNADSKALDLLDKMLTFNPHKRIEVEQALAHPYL
# UniProt P21802, 458-768 limits assumed: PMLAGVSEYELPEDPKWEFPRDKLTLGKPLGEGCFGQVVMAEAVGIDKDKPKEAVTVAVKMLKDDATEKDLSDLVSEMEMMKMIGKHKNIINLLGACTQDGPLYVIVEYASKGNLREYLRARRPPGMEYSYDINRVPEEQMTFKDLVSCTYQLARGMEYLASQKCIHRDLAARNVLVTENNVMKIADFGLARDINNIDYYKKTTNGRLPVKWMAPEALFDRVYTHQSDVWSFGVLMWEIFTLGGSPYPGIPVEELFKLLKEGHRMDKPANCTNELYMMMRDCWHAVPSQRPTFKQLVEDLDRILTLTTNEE
# UniProt Q99683, 659-951 limits assumed: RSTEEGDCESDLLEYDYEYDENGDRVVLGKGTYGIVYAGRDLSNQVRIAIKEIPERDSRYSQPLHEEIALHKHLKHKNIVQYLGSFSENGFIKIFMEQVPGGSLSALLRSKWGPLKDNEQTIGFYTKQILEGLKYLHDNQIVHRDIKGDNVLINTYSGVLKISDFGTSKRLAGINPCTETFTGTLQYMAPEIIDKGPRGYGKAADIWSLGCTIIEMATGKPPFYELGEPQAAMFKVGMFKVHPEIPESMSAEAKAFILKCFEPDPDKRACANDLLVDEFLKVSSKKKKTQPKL
# UniProt P45985, 102-367 limits assumed: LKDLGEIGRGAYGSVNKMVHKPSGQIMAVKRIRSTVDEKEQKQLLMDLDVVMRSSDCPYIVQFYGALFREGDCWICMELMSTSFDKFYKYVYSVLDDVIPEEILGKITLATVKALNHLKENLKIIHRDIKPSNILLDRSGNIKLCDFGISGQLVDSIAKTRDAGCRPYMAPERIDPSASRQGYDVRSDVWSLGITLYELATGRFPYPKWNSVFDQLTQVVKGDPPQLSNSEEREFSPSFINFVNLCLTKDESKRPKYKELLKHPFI
# UniProt Q12866, 587-858 limits assumed: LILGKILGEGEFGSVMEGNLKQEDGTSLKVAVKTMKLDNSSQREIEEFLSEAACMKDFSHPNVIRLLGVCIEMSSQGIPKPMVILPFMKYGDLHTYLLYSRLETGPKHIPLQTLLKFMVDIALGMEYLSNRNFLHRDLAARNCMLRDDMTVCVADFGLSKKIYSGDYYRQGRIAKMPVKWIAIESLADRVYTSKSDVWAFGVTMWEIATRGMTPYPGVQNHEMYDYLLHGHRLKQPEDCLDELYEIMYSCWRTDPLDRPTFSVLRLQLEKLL
# UniProt Q13188, 16-313 limits assumed: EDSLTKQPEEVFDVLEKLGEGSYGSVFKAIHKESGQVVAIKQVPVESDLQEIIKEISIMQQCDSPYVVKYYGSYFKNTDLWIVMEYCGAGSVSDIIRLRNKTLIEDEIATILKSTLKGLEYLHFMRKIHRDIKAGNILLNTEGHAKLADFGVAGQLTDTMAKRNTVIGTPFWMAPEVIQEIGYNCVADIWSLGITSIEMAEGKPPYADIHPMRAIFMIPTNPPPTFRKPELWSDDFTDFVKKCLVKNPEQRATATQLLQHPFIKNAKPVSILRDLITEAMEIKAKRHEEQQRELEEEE
# UniProt Q00536, 163-478 limits assumed: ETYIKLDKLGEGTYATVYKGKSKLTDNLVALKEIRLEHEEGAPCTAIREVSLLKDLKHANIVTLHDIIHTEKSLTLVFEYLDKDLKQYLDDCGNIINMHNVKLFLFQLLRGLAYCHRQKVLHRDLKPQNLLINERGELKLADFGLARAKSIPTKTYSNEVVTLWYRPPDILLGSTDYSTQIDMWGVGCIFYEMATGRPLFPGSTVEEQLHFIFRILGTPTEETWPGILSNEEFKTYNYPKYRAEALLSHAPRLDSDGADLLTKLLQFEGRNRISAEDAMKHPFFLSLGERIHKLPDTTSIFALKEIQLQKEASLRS
# UniProt Q96SB4, 80-653 limits assumed: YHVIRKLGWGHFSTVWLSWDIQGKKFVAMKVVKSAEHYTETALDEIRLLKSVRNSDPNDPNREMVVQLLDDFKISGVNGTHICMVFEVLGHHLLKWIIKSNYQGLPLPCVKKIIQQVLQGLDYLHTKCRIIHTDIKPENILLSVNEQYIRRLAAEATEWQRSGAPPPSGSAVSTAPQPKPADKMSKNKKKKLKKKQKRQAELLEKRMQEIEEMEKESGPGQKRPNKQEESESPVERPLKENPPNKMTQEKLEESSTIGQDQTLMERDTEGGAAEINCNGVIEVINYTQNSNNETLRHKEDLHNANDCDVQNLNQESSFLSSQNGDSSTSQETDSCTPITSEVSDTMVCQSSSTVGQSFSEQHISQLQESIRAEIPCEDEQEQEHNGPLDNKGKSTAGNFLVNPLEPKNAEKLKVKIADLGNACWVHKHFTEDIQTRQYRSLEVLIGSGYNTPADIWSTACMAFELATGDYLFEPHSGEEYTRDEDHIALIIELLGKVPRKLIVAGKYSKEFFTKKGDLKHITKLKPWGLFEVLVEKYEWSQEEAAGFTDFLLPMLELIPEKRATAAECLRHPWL
# UniProt P33981, 525-791 limits assumed: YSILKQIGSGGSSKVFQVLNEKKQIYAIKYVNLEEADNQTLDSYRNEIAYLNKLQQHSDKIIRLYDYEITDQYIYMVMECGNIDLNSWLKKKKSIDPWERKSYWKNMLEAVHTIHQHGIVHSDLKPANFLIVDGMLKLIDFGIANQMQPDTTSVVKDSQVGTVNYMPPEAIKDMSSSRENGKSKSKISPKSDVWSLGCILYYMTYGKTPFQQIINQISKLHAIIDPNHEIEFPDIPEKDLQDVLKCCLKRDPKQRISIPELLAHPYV
# UniProt Q6PHR2, 1-279 limits assumed: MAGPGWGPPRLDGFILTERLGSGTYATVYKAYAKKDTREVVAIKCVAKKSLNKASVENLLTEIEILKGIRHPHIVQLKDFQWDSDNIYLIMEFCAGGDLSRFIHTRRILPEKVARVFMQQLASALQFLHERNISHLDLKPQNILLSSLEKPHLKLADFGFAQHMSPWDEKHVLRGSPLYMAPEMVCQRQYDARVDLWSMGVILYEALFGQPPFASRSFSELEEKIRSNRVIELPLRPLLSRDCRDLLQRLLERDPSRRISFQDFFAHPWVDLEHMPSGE
# UniProt O15264: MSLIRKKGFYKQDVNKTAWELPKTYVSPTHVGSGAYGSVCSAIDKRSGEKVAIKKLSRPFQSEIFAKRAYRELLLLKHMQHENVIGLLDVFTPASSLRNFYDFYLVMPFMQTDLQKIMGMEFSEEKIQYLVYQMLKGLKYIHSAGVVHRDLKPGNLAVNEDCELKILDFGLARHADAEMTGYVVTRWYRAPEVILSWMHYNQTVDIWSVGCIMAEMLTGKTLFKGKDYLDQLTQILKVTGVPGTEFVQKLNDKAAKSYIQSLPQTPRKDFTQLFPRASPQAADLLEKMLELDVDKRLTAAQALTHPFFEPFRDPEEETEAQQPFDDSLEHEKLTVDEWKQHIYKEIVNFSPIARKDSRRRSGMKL
# How the values were obtained:
# ABL1 = ABL1 (Homo sapiens, UniProt P00519); assay: DSF kinase panel; conditions: 10 μM
# ATK3 = ATK3 (Homo sapiens, UniProt Q9Y243); assay: DSF kinase panel; conditions: 10 μM
# AURKB = AURKB (Homo sapiens, UniProt Q96GD4); assay: DSF kinase panel; conditions: 10 μM
# AurA = AurA (Homo sapiens, UniProt O14965); assay: DSF kinase panel; conditions: 10 μM
# BMX = BMX (Homo sapiens, UniProt P51813); assay: DSF kinase panel; conditions: 10 μM
# CAMK2B = CAMK2B (Homo sapiens, UniProt Q13554); assay: DSF kinase panel; conditions: 10 μM
# CDK2 = CDK2 (Homo sapiens, UniProt P24941); assay: DSF kinase panel; conditions: 10 μM
# CHK2 = CHK2 (Homo sapiens, UniProt O96017); assay: DSF kinase panel; conditions: 10 μM
# CSNK1E = CSNK1E (Homo sapiens, UniProt P49674); assay: DSF kinase panel; conditions: 10 μM
# DAPK1 = DAPK1 (Homo sapiens, UniProt P53355); assay: DSF kinase panel; conditions: 10 μM
# DAPK3 = DAPK3 (Homo sapiens, UniProt O43293); assay: DSF kinase panel; conditions: 10 μM
# DMPK1 = DMPK1 (Homo sapiens, UniProt Q09013); assay: DSF kinase panel; conditions: 10 μM
# DYRK2 = DYRK2 (Homo sapiens, UniProt Q92630); assay: DSF kinase panel; conditions: 10 μM
# EPHB1 = EPHB1 (Homo sapiens, UniProt P54762); assay: DSF kinase panel; conditions: 10 μM
# EPHB3 = EPHB3 (Homo sapiens, UniProt P54753); assay: DSF kinase panel; conditions: 10 μM
# EphA2 = EphA2 (Homo sapiens, UniProt P29317); assay: DSF kinase panel; conditions: 10 μM
# Erk2 = Erk2 (Homo sapiens, UniProt P28482); assay: DSF kinase panel; conditions: 10 μM
# FGFR1 = FGFR1 (Homo sapiens, UniProt P11362); assay: DSF kinase panel; conditions: 10 μM
# FGFR2 = FGFR2 (Homo sapiens, UniProt P21802); assay: DSF kinase panel; conditions: 10 μM
# HIPK2 = HIPK2 (Homo sapiens, UniProt Q9H2X6); assay: DSF kinase panel; conditions: 10 μM
# JNK2 = JNK2 (Homo sapiens, UniProt P45984); assay: DSF kinase panel; conditions: 10 μM
# MAP2K1 = MAP2K1 (Homo sapiens, UniProt Q02750); assay: DSF kinase panel; conditions: 10 μM
# MAP3K5 = MAP3K5 (Homo sapiens, UniProt Q99683); assay: DSF kinase panel; conditions: 10 μM
# MEK4 = MEK4 (Homo sapiens, UniProt P45985); assay: DSF kinase panel; conditions: 10 μM
# MER = MER (Homo sapiens, UniProt Q12866); assay: DSF kinase panel; conditions: 10 μM
# MSK1_b = MSK1_b (Homo sapiens, UniProt O75582); assay: DSF kinase panel; conditions: 10 μM
# MST1 = MST1 (Homo sapiens, UniProt Q13043); assay: DSF kinase panel; conditions: 10 μM
# MST2 = MST2 (Homo sapiens, UniProt Q13188); assay: DSF kinase panel; conditions: 10 μM
# PAK1 = PAK1 (Homo sapiens, UniProt Q13153); assay: DSF kinase panel; conditions: 10 μM
# PCTAIRE1 = PCTAIRE1 (Homo sapiens, UniProt Q00536); assay: DSF kinase panel; conditions: 10 μM
# PHKg2 = PHKg2 (Homo sapiens, UniProt P15735); assay: DSF kinase panel; conditions: 10 μM
# PIM3 = PIM3 (Homo sapiens, UniProt Q86V86); assay: DSF kinase panel; conditions: 10 μM
# SRPK1 = SRPK1 (Homo sapiens, UniProt Q96SB4); assay: DSF kinase panel; conditions: 10 μM
# TLK1 = TLK1 (Homo sapiens, UniProt Q9UKI8); assay: DSF kinase panel; conditions: 10 μM
# TTK = TTK (Homo sapiens, UniProt P33981); assay: DSF kinase panel; conditions: 10 μM
# ULK3 = ULK3 (Homo sapiens, UniProt Q6PHR2); assay: DSF kinase panel; conditions: 10 μM
# p38a = p38a (Homo sapiens, UniProt Q16539); assay: DSF kinase panel; conditions: 10 μM
# p38d = p38d (Homo sapiens, UniProt O15264); assay: DSF kinase panel; conditions: 10 μM
# [1] = Plasma stability assay, mouse; conditions: 1 μg∙mL-1
# [2] = Plasma protein binding, mouse
# [3] = Plasma protein binding, human; conditions: mean
# [4] = Metabolic stability assay, mouse microsomes
# [5] = Metabolic stability assay, human microsomes
smiles,measurement,setting,value
C[C@@H](CO)Cn1cc(-c2c(Cl)cnc3[nH]ccc23)nn1,ΔTm ABL1,ABL1,2.0 °C
same,ΔTm ATK3,ATK3,0.2 °C
same,ΔTm AURKB,AURKB,6.3 °C
same,ΔTm AurA,AurA,8.1 °C
same,ΔTm BMX,BMX,0.5 °C
same,ΔTm CAMK2B,CAMK2B,0.9 °C
same,ΔTm CDK2,CDK2,1.5 °C
same,ΔTm CHK2,CHK2,2.8 °C
same,ΔTm CSNK1E,CSNK1E,3.1 °C
same,ΔTm DAPK1,DAPK1,3.2 °C
same,ΔTm DAPK3,DAPK3,5.6 °C
same,ΔTm DMPK1,DMPK1,2.0 °C
same,ΔTm DYRK2,DYRK2,3.2 °C
same,ΔTm EPHB1,EPHB1,0.4 °C
same,ΔTm EPHB3,EPHB3,-0.8 °C
same,ΔTm EphA2,EphA2,-0.3 °C
same,ΔTm Erk2,Erk2,0.8 °C
same,ΔTm FGFR1,FGFR1,1.3 °C
same,ΔTm FGFR2,FGFR2,-0.2 °C
same,ΔTm HIPK2,HIPK2,1.9 °C
same,ΔTm JNK2,JNK2,0.6 °C
same,ΔTm MAP2K1,MAP2K1,0.7 °C
same,ΔTm MAP3K5,MAP3K5,6.3 °C
same,ΔTm MEK4,MEK4,4.7 °C
same,ΔTm MER,MER,0.7 °C
same,ΔTm MSK1_b,MSK1_b,7.5 °C
same,ΔTm MST1,MST1,2.5 °C
same,ΔTm MST2,MST2,2.3 °C
same,ΔTm PAK1,PAK1,-0.6 °C
same,ΔTm PCTAIRE1,PCTAIRE1,0.6 °C
same,ΔTm PHKg2,PHKg2,1.5 °C
same,ΔTm PIM3,PIM3,1.2 °C
same,ΔTm SRPK1,SRPK1,0.3 °C
same,ΔTm TLK1,TLK1,-0.5 °C
same,ΔTm TTK,TTK,2.2 °C
same,ΔTm ULK3,ULK3,7.1 °C
same,ΔTm p38a,p38a,-0.5 °C
same,ΔTm p38d,p38d,0.9 °C
same,t1/2 mouse plasma,[1],> 240 min
same,"PPB mouse, single replicate","[2]; maus, raw data of Table 3",23.5% and 3.4% and 7.6%
same,PPB mouse (%),"[2]; mouse, mean",11.5 ± 10.6%
same,PPB human (%),[3],22.0 ± 14.6%
same,t1/2 mouse microsomes,[4],>60 min
same,t1/2 human microsomes,[5],>60 min
OC[C@H](O)Cn1cc(-c2c(Cl)cnc3[nH]ccc23)nn1,ΔTm ABL1,ABL1,1.6 °C
same,ΔTm ATK3,ATK3,-0.2 °C
same,ΔTm AURKB,AURKB,6.0 °C
same,ΔTm AurA,AurA,7.0 °C
same,ΔTm BMX,BMX,0.2 °C
same,ΔTm CAMK2B,CAMK2B,0.7 °C
same,ΔTm CDK2,CDK2,0.2 °C
same,ΔTm CHK2,CHK2,2.7 °C
same,ΔTm CSNK1E,CSNK1E,2.9 °C
same,ΔTm DAPK1,DAPK1,2.2 °C
same,ΔTm DAPK3,DAPK3,4.5 °C
same,ΔTm DMPK1,DMPK1,1.4 °C
same,ΔTm DYRK2,DYRK2,3.9 °C
same,ΔTm EPHB1,EPHB1,0.2 °C
same,ΔTm EPHB3,EPHB3,-1.8 °C
same,ΔTm EphA2,EphA2,-0.4 °C
same,ΔTm Erk2,Erk2,0.6 °C
same,ΔTm FGFR1,FGFR1,1.3 °C
same,ΔTm FGFR2,FGFR2,-0.2 °C
same,ΔTm HIPK2,HIPK2,1.0 °C
same,ΔTm JNK2,JNK2,0.4 °C
same,ΔTm MAP2K1,MAP2K1,0.3 °C
same,ΔTm MAP3K5,MAP3K5,6.4 °C
same,ΔTm MEK4,MEK4,4.4 °C
same,ΔTm MER,MER,0.2 °C
same,ΔTm MSK1_b,MSK1_b,8.0 °C
same,ΔTm MST1,MST1,2.4 °C
same,ΔTm MST2,MST2,3.0 °C
same,ΔTm PAK1,PAK1,-1.0 °C
same,ΔTm PCTAIRE1,PCTAIRE1,-0.1 °C
same,ΔTm PHKg2,PHKg2,1.1 °C
same,ΔTm PIM3,PIM3,0.8 °C
same,ΔTm SRPK1,SRPK1,-0.2 °C
same,ΔTm TLK1,TLK1,-1.2 °C
same,ΔTm TTK,TTK,1.6 °C
same,ΔTm ULK3,ULK3,5.6 °C
same,ΔTm p38a,p38a,-0.7 °C
same,ΔTm p38d,p38d,0.6 °C

# Several values for one entry are separate records, joined by “and”; a condition that tells them apart may be missing. Equal values may be shown once.
